Data from ChEMBL document CHEMBL3817799, “N-Nitrosulfonamides: A new chemotype for carbonic anhydrase inhibition” (Bioorg Med Chem, 2016).

How the values were obtained:
Carbonic anhydrase 2 = Carbonic anhydrase 2 (Homo sapiens, UniProt P00918)
Carbonic anhydrase 9 = Carbonic anhydrase 9 (Homo sapiens, UniProt Q16790)

SMILES	Ki (Carbonic anhydrase 2)	Ki (Carbonic anhydrase 9)
Nc1ccc(S(=O)(=O)N[N+](=O)[O-])cc1	> 50 µM	8.19 µM
Nc1ccccc1S(=O)(=O)N[N+](=O)[O-]	> 50 µM	–
Nc1cc(S(=O)(=O)N[N+](=O)[O-])cc([N+](=O)[O-])c1O	> 50 µM	8.72 µM
